Usually IC50 stands for the concentration at which inhibition is half-maximal.

Amino acid sequences for entries named in this document (tags omitted).
UniProt P30291, whole entry: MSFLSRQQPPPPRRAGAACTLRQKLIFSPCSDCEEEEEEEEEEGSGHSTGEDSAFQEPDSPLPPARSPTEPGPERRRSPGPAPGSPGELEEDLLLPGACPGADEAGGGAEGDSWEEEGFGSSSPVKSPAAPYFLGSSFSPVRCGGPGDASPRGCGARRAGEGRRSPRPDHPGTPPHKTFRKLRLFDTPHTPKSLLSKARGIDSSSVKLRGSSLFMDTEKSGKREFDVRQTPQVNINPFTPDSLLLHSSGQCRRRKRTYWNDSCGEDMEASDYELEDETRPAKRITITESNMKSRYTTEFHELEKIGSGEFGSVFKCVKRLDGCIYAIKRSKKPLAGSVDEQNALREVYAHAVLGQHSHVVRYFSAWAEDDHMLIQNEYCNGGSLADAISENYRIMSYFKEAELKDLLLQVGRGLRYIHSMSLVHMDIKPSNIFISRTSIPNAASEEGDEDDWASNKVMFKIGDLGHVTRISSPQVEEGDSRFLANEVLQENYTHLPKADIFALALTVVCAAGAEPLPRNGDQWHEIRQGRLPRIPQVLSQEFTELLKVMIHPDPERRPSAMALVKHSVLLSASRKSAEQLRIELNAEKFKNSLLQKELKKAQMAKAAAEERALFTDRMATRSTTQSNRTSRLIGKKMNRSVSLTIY

We go through 2 compounds from patent publication US12649748B2, “Wee1 inhibitor and use thereof” (JIANGSU TASLY DIYI PHARMACEUTICAL CO., LTD., priority 2021, dated 2026).

One experiment addresses Wee1 protein (Homo sapiens, UniProt P30291). As to the kind of experiment: Binding of compound to Wee1 protein and Tracer 178 by TR-FRET. The note with it: read-out: IC50 measured value, inhibitory activity against Wee1 kinase. For orientation: TR-FRET usually uses a lanthanide donor and a delayed reading to cut background.
For the next experiment, the system named is H1299 cells. As to the kind of experiment: Anti-proliferative effect by Cell Titer-Glo, H1299. It is filed as cell-based. The note with it: read-out: IC50 measured value H1299, 3 days. Here is the method:
(§1) Compound solutions of different concentration gradients were prepared. DMSO was dissolved to a concentration of 10 mM test compound and 10 mM reference compound AZD1775, and the compounds were serially diluted in culture medium for a total of 9 dose points, with 2 parallel replicates set at each concentration. The cell growth group without compound was used as a positive control (maximum signal control) and the medium was used as a negative control (minimum signal control), while ensuring that the final level of DMSO in each reaction well was 0.2%. […]
(§2) The 384-well plates were removed from the cell incubator and allowed to equilibrate for 1 h to room temperature. 25 ul of Cell Titer-Glo assay was added to each well, lysed on a shaker for 2 min and then read out (Luminescence) using a BMG PHERAStar after 10 min incubation. Calculate the inhibition rate from the luminescence signal: first calculate the average of the positive control (maximum signal control) and the negative control (minimum signal control).
(§3) [formula] to calculate the rate of inhibition of the cells by different concentrations of the compounds. The IC50 of the compound on cell activity inhibition was calculated by fitting a log(inhibitor) vs. response-Variable slope model to GraphPad Prism 6. […]
(In ATP-based viability assays light output follows the ATP content of the culture.)

For another experiment, the system named is MIA Paca-2 cells. The experiment in a line: Anti-proliferative effect by Cell Titer-Glo, MIA Paca-2. It is filed as cell-based. The note with it: read-out: IC50 measured value MIA Paca-2, 3 days. As for the experimental part: as §1, §2, §3

Turning to `CC(=O)N1CCc2ccc(Nc3ncc4cnn(-c5cccc(N=S(C)(C)=O)n5)c4n3)cc2C1`, the figures for the IC50 on Wee1 protein and in the experiment with H1299 cells were 10 to 100 nM and 1000 to 5000 nM, respectively.
`CN1CCN(c2ccc(Nc3ncc4cnn(-c5csc(C(C)(C)O)c5)c4n3)cc2)CC1`: the 50% inhibitory concentration (IC50) at Wee1 protein is 10 to 100 nM; in the experiment with H1299 cells, 100 to 1000 nM; in the experiment on MIA Paca-2 cells, 100 to 1000 nM.
